This note sets out measurements from EP1412028B1, “TETRAHYDROINDOLONE DERIVATIVES LINKED TO ARYLPIPERAZINES” (Spectrum Pharmaceuticals, Inc., priority 2001, dated 2003).

The series concerns Caco-2 cells. Nature of the series: Membrane permeability (Papp) across Caco-2 cell monolayers. The settings on record: Yes/No judgement. For orientation: Caco-2 cells form a polarised layer with tight junctions and transporters.

The structures appear in SMILES notation.

With `Cc1nc2n(c(=O)c1CCN1CCC(c3noc4cc(F)ccc34)CC1)CCCC2` [Risperidone, risperidone, reference compound], the “EFFLUX LIMITED” value was “No”.
